Results taken from patent US20140336193A1, “POTENT NON-UREA INHIBITORS OF SOLUBLE EPOXIDE HYDROLASE” (priority 2012, published 2014).

Experiment: In vitro human liver microsomal metabolic stability (Example 4)
Assay type: in vitro ADME
Settings: microsomes
Protocol: The stability of sEH inhibitors in a human liver microsomal assay was determined as a predictor of in vivo oxidative metabolism. Microsomal stability was assessed in pooled human liver microsomes (Celsis, Edison, N.J.). All reactions were carried out for 90 min at 37° C. in an NADPH-generating system consisting of glucose 6-phosphate, glucose 6-phosphate dehydrogenase, and NADP^+ (Sigma, St. Louis, Mo.). Positive control incubations proceeded with 7-ethoxycoumarin as the substrate. Reactions were terminated by adding methanol. The mixtures were centrifuged and the supernatants were evaporated. The residues were reconstituted in mobile phase (85% ACN; 15% H2O) and subjected to LC/MS analysis.

Cc1ccc(S(=O)(=O)N2CCC(C(=O)NC3CCCCCC3)CC2)c(C)c1 [Compound 2]
CLint, app: 220 mL/min/kg
hLM t1/2: 5.5 min
